This note sets out measurements from patent publication US20150140059A1 (The Regents of the University of California, priority 2012, published 2015).

In this assay the test system is Lewis rats. Put plainly: Rat posterolateral intertransverse process spinal fusion at L4-L5. The format is in vivo. Here is the method: Thirty-eight 8-week-old male Lewis rats were purchased from Charles River Laboratories (Wilmington, Mass.) and were maintained and housed at the UCLA vivarium in accordance with regulations set forth by the UCLA Office of Protection of Research Subjects. The study was performed under a protocol approved by the UCLA Animal Research Committee (ARC). All animals were euthanized using a standard CO2 chamber 8 weeks after the spinal fusion procedure, and their spines were excised and stored in 40% ethyl alcohol.
Animals were pre-medicated with sustained release buprenorphine thirty minutes prior to surgery and anesthetized with 2% isoflurane administered in oxygen (1 L/min). The surgical site was shaved and disinfected with Betadine and 70% ethanol. Posterolateral intertransverse process spinal fusion at L4-L5 was performed as in prior studies (21,22). The L6 vertebral body was identified using the iliac crest as a landmark. A 4-cm longitudinal midline incision was made through the skin and subcutaneous tissue over L4-L5 down to the lumbodorsal fascia. A 2-cm longitudinal paramedial incision was then made in the paraspinal muscles bilaterally to expose the transverse processes of L4-L5, which were decorticated with a high-speed burr. The surgical site was then irrigated with sterile saline, and 5 mm×5 mm×13 mm pieces of collagen sponge (Helistat, Integra Life Sciences) containing dimethyl sulfoxide (DMSO) control, rhBMP-2, or Oxy149 were placed bilaterally, with each implant spanning the transverse processes. The implants were then covered with the overlying paraspinal muscles and the lumbodorsal fascia and skin were closed with 4-0 Prolene sutures (Ethicon, Inc., Somerville, N.J.). Animals were allowed to ambulate, eat, and drink ad libitum immediately after surgery.
Posteroanterior radiographs of the lumbar spine were taken on each animal at 4, 6, and 8 weeks after surgery using a Faxitron LX60 cabinet radiography system and evaluated blindly by two independent observers employing the following standardized scale: 0, no fusion; 1, unilateral fusion; and 2, complete bilateral fusion. The scores from the observers were added together and only a score of 4 was considered as complete fusion.
Eight weeks after surgery, animals were euthanized and the spines were surgically removed and evaluated by two blinded independent observers for motion between levels. Nonunion was recorded if motion was observed between the facets or transverse processes on either side. Complete fusion was recorded if no motion was observed bilaterally. Spines were scored as either fused or not fused. Unanimous agreement was required to consider complete fusion.
Each removed spine was analyzed by high resolution micro-computed tomography (micro-CT), using a SkyScan 1172 scanner (SkyScan, Belgium) with a voxel isotropic resolution of 20 μm and an X-ray energy of 55 kVp and […] to further assess the fusion rate and observe the fusion mass as we have previously reported (15). Three hundred and sixty projections were acquired over an angular range of 180° with steps of 0.5 with an exposure time of 220 msec/slice. Five frames were averaged at each rotation step to get better signal to noise ratio. A 0.5 mm aluminum filter was used to narrow down the X-ray beam frequency in order to minimize beam hardening artifact. Virtual image slices were reconstructed using the cone-beam reconstruction software version 2.6 based on the Feldkamp algorithm (SkyScan). These settings produced serial cross-sectional 1024×1024 pixel images. Sample re-orientation and 2D visualization were performed using DataViewer (SkyScan). 3D visualization was performed using Dolphin Imaging version 11 (Dolphin Imaging & Management Solutions, Chatsworth, Calif.). Fusion was defined as the bilateral presence of bridging bone between the L4 and L5 transverse processes. The reconstructed images were judged to be fused or not fused by two experienced independent observers. […]

The mark [1] stands for this setting: 5 μg rhBMP-2, at sacrifice (8 weeks).

For “BMP2: Recombinant human bone morphogenetic protein-2 (rhBMP-2)”, the “bilateral fusion, manual assessment” value (5 μg rhBMP-2, 8 weeks) is reported as “all animals”. In addition, under setting [1], the “Fusion Rates, Manual Palpation” value is listed as 100%; the “Fusion Rates, Micro-CT” value is 100%; the “Fusion Rates, X-ray” value worked out at 100%. The “bilateral fusion on radiographs (animals)” value (5 μg rhBMP-2, four weeks) is on record as 8/8. Also, the “adipocytes within the fusion mass, histology” value (5 μg rhBMP-2, visual inspection of histological specimens) is “robust formation of adipocytes”. For the same substance, under “5 μg, micro-CT, 8 weeks”, the “trabecular thickness per footnote” value amounted to 131.131.
